The test system of this experiment is Bastardhunden. Put plainly: Haemodynamic study of antianginal and antihypertensive action in anaesthetised mongrel dogs. It is filed as in vivo. To be noted: Dosis 0,8 mg/kg; dogs under pentobarbital or urethane-chloralose anaesthesia.

In the case of `O=[N+]([O-])O[C@H]1CO[C@H]2[C@@H]1OC[C@H]2O[N+](=O)[O-]`, the “BDm Δ (mittlerer peripherer Blutdruck)” value is listed as -15 mmHg, the “HF Δ (Herzfrequenz)” value is listed as “+15 b/min”, the “LVEDP Δ (linksventrikulärer enddiastolischer Druck)” value is given as -3,0 mmHg and the “PAP Δ (mittlerer Pulmonalarteriendruck)” value is listed as -2,0 mmHg.

Source of the values: patent EP0075141A1, “1,2,5-Oxadiazole-3,4-dicarboxylic-acid derivatives, process for their production, their use and pharmaceutical preparations containing them” (CASSELLA Aktiengesellschaft, priority 1981, dated 1983).
